Experimental data published in ChEMBL document CHEMBL4354843, “Structure-Based Design of a Potent and Selective Covalent Inhibitor for SRC Kinase That Targets a P-Loop Cysteine” (J Med Chem, 2020).

The chains behind the UniProt entries cited, without tags or fusion partners.
UniProt P07947, whole entry, looked up: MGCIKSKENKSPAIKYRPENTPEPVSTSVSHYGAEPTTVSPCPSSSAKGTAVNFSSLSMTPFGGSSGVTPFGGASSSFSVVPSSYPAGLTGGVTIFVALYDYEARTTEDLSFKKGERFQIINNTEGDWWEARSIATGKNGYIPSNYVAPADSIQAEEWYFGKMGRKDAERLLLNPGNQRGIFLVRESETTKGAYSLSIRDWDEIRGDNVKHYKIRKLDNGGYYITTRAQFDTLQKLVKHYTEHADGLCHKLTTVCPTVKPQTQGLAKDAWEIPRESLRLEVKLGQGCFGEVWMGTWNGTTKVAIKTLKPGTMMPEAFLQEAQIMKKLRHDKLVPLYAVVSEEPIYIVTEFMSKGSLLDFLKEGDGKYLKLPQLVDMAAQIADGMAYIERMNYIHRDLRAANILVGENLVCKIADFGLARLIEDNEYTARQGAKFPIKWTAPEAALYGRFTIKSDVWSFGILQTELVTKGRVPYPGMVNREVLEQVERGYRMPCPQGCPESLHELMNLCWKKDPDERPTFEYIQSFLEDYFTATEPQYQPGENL

Biological target: Tyrosine-protein kinase Yes (Homo sapiens) (UniProt P07947)
Test: Binding affinity to wild-type human partial length YES (T257 to L543 residues) expressed in bacterial expression system assessed as residual binding level at 1 uM by Kinomescan method relative to control

C=CC(=O)Nc1ccccc1Nc1nc(Nc2ccc(N3CCN(C)CC3)cc2)ncc1C(=O)Nc1c(C)cccc1Cl
Activity: 0.55%
